{
  "source": "paper PMC9922763",
  "about": "(Frontiers in Molecular Biosciences, 2023)",
  "binders": {"B1": {"name": "aSyn (61–95) BiFC fusion: aSyn residues 61–95, 17-residue linker, N-terminal or C-terminal fragment of Venus (domain or fragment)", "chain": "EQVTNVGGAVVTGVTAVAQKTVEGAGSIAAATGFVRPACKIPNDLKQKVMNH", "notes": "alpha-synuclein (aSyn), residues 61-95, the non-amyloid-B component (NAC) region, 35 amino acids; 17-amino acid linker between the protein of interest and the Venus fragment; One molecule stands for both constructs, aSVN (Venus 1-173) and aSVC (Venus 155-239); the label in each row tells which was used; A start methionine and residues coded by the restriction sites are not described; also called …"}, "B2": {"name": "IAPP BiFC fusion: human IAPP, 17-residue linker, N-terminal or C-terminal fragment of Venus (peptide)", "chain": "KCNTATCATQRLANFLVHSSNNFGAILSSTNVGSNTYRPACKIPNDLKQKVMNH", "notes": "human islet amyloid polypeptide (IAPP), the 37-amino acid long peptide cut from proIAPP; 17-amino acid linker between the protein of interest and the Venus fragment; One molecule stands for both constructs, IVN (Venus 1-173) and IVC (Venus 155-239); the label in each row tells which was used; a start methionine is not described; also called IVN; IVC; source: HEK293, transfected (pcDNA3.1 zeo+), …"}},
  "key": {"[1]": {"target": "B2", "assay": "split reporter (BiFC, NanoBiT); BiFC with split Venus in transfected HEK293 cells; percent of fluorescent cells by flow cytometry (Accuri C6 plus) 24 h after transfection", "settings": "partners not purified"}, "[2]": {"target": "B1", "assay": "split reporter (BiFC, NanoBiT); BiFC with split Venus in transfected HEK293 cells; percent of fluorescent cells by flow cytometry (Accuri C6 plus) 24 h after transfection", "settings": "partners not purified"}},
  "data": [
    {"binder": "B1", "values": [
      {"measurement": "percent of cells with a fluorescent BiFC signal", "setting": "[1]", "result": 9.8, "unit": "%"}
    ]},
    {"binder": "B2", "values": [
      {"measurement": "percent of cells with a fluorescent BiFC signal", "setting": "[2]", "result": 11, "unit": "%"}
    ]}
  ]
}
